According to ChEMBL document CHEMBL5150021, “Identification of 5-(Aryl/Heteroaryl)amino-4-quinolones as Potent Membrane-Disrupting Agents to Combat Antibiotic-Resistant Gram-Positive Bacteria” (J Med Chem, 2022):

Assay: Ratio of MBC for bactericidal activity against methicillin resistant Staphylococcus aureus USA300 FPR3757 to MIC for antibacterial activity against community-associated methicillin-resistant Staphylococcus aureus USA300 FPR3757
Format: functional

Structure (SMILES)	Ratio
FC(F)(F)c1ccc2c(Nc3ccc(Cl)c(Cl)c3)cc(C(F)(F)F)nc2c1	32
O=c1cc(C(F)(F)F)[nH]c2cc(C(F)(F)F)cc(Nc3ccc(C(F)(F)F)cn3)c12	32
O=c1cc(C(F)(F)F)[nH]c2cc(C(F)(F)F)cc(N[C@H]3CC[C@H](C(F)(F)F)CC3)c12	8
FC(F)(F)c1ccc(Nc2cc(C(F)(F)F)nc3cc(C(F)(F)F)ccc23)nc1	32
